Drawing on ChEMBL document CHEMBL1177841, “Chromene-3-carboxamide derivatives discovered from virtual screening as potent inhibitors of the tumour maker, AKR1B10” (Bioorg Med Chem, 2010), this text covers IC50 for 1 molecule.

As usually defined, the IC50 is the midpoint of a concentration-inhibition curve.

This experiment has as its target Aldo-keto reductase family 1 member B1 (Homo sapiens, UniProt P15121). Kind of experiment: Inhibition of N-terminal 6His-tagged human aldose reductase expressed in Escherichia coli BL21(DE3) mediated NADPH linked pyridine-3-aldehyde reduction.

As for `O=C(O)Cc1nn(Cc2nc3cc(C(F)(F)F)ccc3s2)c(=O)c2ccccc12` [ZOPOLRESTAT], the IC50 was found to be 0.06 µM.
